Patent US4687778A, “Anti-amnestic agent” (Kabushiki Kaisha Yakult Honsha, priority 1984, dated 1987)

System: experimental amnestic rats
Test: passive avoidance response of rats (scopolamine-induced amnesia), retention test
Assay type: in vivo, male Wister SLC rat
Conditions: scopolamine 3 mg/kg i.p.
Experimental: The method of assay of the anti-amnestic action was carried out according to the method reported by A. Kubota et al. in Int. […] A passive avoidance chamber used in this test was surrounded with inside-visible transparent plastic plates and included an electrifiable grid floor (30 cm in length and 30 cm in width) capable of being derivered with an electric current of 1.7 mA in strength for electric foot shock and a platform (15 cm in length, 15 cm in width and 4 cm in height) placed at the right back corner thereof. A male Wister SLC rat (weighing 100-150 g) was placed in the passive avoidance chamber and, when he stepped down on the floor, the electric current was sent to the grid continuously until he went up on the platform. Repeating this test with another rat, the rats stayed on the platform for more than 15 seconds were taken out of the chamber, being regarded to have learned the situation. This electric shock was normally 2 or 3 times. To avoid any difference in the rats, those required 10 seconds for the first step-down and those stepped down on the floor at least 5 times were excluded. Among the learned or trained rats, the first control group of them were intraperitoneally administered with 0.5% CMC solution and the other groups of them were intraperitoneally administered with scopolamine hydrobromide in a dose of 3 mg/Kg to prepare experimental amnestic rats. The prolinal derivatives of the general formula to be tested were in each case intraperitoneally or orally administered to the rats in an amount shown in Table 1 or 2 one after completion of the learning. In each case, the polinal derivatives are used as having been dissolved or suspended in a 0.5% CMC solution.

## O=C[C@@H]1CCCN1C(=O)[C@@H]1CCCN1C(=O)OCc1ccccc1 [N--Benzyloxycarbonyl-prolyl-prolinal, N-benzyloxycarbonyl-prolyl-prolinal]
2.2 mg/kg i.p. after training
  Retention Test Latency, 24 hr: 192.0 s
  Retention Test Latency, 48 hr: 141.5 s
2.2 mg/kg p.o. after training
  Retention Test Latency, 24 hr: 140.2 s
  Retention Test Latency, 48 hr: 102.3 s
